In the experiment the test system is Rattus norvegicus. The experiment in a line: Antipsychotic-like activity in po dosed Sprague-Dawley rat assessed as reversal of amphetamine-induced hyperlocomotion. It is filed as functional. Particulars: read-out: MED.

Data on one compound can be found in ChEMBL document CHEMBL3745662, “Preliminary investigation of 6,7-dihydropyrazolo[1,5-a]pyrazin-4-one derivatives as a novel series of mGlu5 receptor positive allosteric modulators with efficacy in preclinical models of schizophrenia” (Bioorg Med Chem Lett, 2016).

With `O=C1c2cc(COc3ccccc3)nn2CCN1c1ccc(F)cn1`, the minimal effective dose was found to be 3 mg/kg.
